Measurements published in PubChem BioAssay AID2546 (National Center for Advancing Translational Sciences (NCATS), 2010).
The list shows a part of the results, in another mix than the full data. Records with an inconclusive call do not appear. Activity calls are given as the source filed them. Calls follow the shape of the dose curve; as a rule, active = well fitted inhibition curve with a large enough effect; inconclusive = small, poorly fitted or top-dose-only effect, or effect the other way; inactive = flat fitted curve, though single readings scatter.

Assay: VP16 counterscreen qHTS for inhibitors of ROR gamma transcriptional activity;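 also: Gal4-VP16 expression switched on by copper sulfate through the metallothionein promoter; nearly all actives have a fitted effect of over 50% in size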
Conditions: Drosophila S2 Gal4-VP16 UAS-luciferase, luminescence, 20 h; at 53.6 µM (top of the series) unless noted
% is scaled to controls: 0 for no effect and ±100 for the full control effect.

SMILES	activity, negative = inhibition
COc1ccc(C(=O)NCC2(N3CCCCC3)CCCCC2)cc1	inactive: -22.7%
CC(C)(C)OC(=O)N1CCC(N(C(=O)c2ccccc2)c2ccc(F)cc2)CC1	inactive: -0.0663%
COc1ccc(C(=O)NCC2(N3CCCCC3)CCCCC2)c(OC)c1OC	inactive: -9.37%
O=C(NCC1(N2CCCCC2)CCCCC1)c1ccc(=O)[nH]c1	inactive: 2.47%
CCCOc1ccc(C)cc1CN(CCCl)CCCl	inactive: -5.36%
COc1cccc(C(=O)N(c2cc(C)cc(C)c2)C2CCN(C(=O)OC(C)(C)C)CC2)c1	inactive: -1.46%
COc1cc(OC)cc(C(=O)NCC2(N3CCOCC3)CCCCC2)c1	inactive: -0.545%
CCC(CO)(C(=O)OC1CN2CCC1CC2)c1ccccc1 (centres undefined)	inactive: -2.25%
CC(C)(C)OC(=O)N1CCC(Nc2ccccc2)CC1	inactive: 14.5%
O=C(O)C1(Nc2ccccc2)CCN(Cc2ccccc2)CC1	inactive: -13.2%
CCCOc1ccc(C(=O)NCC2(N(C)C)CCCCC2)cc1	inactive: 7.66%
CCOc1ncccc1C(=O)NCC1(N2CCOCC2)CCCCC1	inactive: -0.738%
CN1CCC(Nc2ccc(F)c(Cl)c2)CC1	inactive: -3.84%
CN(C)c1ccc(C(=O)NCC2(N3CCCCC3)CCCCC2)cc1	inactive: -4.27%
CCN1CCC(Nc2cccc(F)c2)CC1	inactive: -6.42%
Fc1ccccc1NC1CCN(Cc2ccccc2)CC1	inactive: 1.63%
COc1cc(OC)cc(C(=O)NCC2(N3CCCCC3)CCCCC2)c1	inactive: 7.13%
ClCCOP(OCCCl)OCCCl	inactive: -5.45%
CN(C)C1(CNC(=O)c2cccc(C#N)c2)CCCCC1	inactive: -8.66%
c1ccc(CN2CCC(Nc3ccccc3)CC2)cc1	inactive: -1.2%
CCCN1CCC(Nc2cc(OC)cc(OC)c2)CC1	inactive: 4.34%
CCOC(=O)C(CC)C1=NC(C)(C)Cc2ccccc21.O=[N+]([O-])c1cc([N+](=O)[O-])c(O)c([N+](=O)[O-])c1 (centres undefined)	inactive: -6.74%
N#Cc1ccc(C(=O)NCC2(N3CCCCC3)CCCCC2)cc1	inactive: -7.69%
CC(C)(C)OC(=O)N1CCC(N(C(=O)c2ccccc2)c2ccc(Cl)cc2)CC1	inactive: -1.24%
O=C(OC1CN2CCC1CC2)C1c2ccccc2C=Cc2ccccc21 (centres undefined)	inactive: -0.326%
O=C(O)c1cccc(Nc2c([N+](=O)[O-])cc([N+](=O)[O-])cc2[N+](=O)[O-])c1	inactive: 3.87%
CCOC(=O)N1CCC(Nc2ccc(C)cc2)CC1	inactive: 12.4%
N/C(=N\O)c1c(N)no[n+]1[O-]	inactive: 1%
COc1ccc(C(=O)NCC2(N3CCOCC3)CCCCC2)cc1OC	inactive: -9.64% [at 10 µM]
